ERp5 block – inhibitors of ERp5-driven insulin aggregation, primary screen, biochemical, turbidity, absorbance 650 nm, single point; AID 651711, 2012; 350,000 compounds, 0.05% hits; inhibition, % at 9.99 µM; 90 min; Protein disulfide-isomerase A6 (Homo sapiens), Q15084;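 active = mean replicate inhibition above about 25%, with every replicate also reaching it, limit read from the data, passing the limit was not always enough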
SIRT5 block – SIRT5 desuccinylase inhibitors, primary screen, biochemical, fluorescence imaging, single point, set 5; Purified SirT5, succinyl-peptide AMC, trypsin-coupled fluorescence; inhibition, % at 15 µM; 330,000 compounds, 1.1% hits; AID 652115, 2013; in the data active = inhibition above about 15%
S100A4 inh HTS – inhibitors of S100A4-myosin IIA peptide binding, primary screen, biochemical, fluorescence polarization, TAMRA-MyoIIA peptide | inhibition, % at 10.7 µM | 360,000 compounds, 0.14% hits | AID 652163, 2013;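 active = mean inhibition of at least 70% across replicates, with every replicate also reaching that level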
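Material: S100A4 monomer protein / Buffer or medium: 50 mM HEPES pH 7.2, 10 mM CaCl2, 100 mM KCl / Times: 5 min incubation before reading / Benchmarks: neutral control DMSO, positive control TFP / Reagent: labelled myosin peptide probe, 5 nM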
FGF22 binding – binders of human FGF22 protein, primary screen, FGF22 synaptogenesis inhibitor project, biophysical, thermal shift, single point | Fibroblast growth factor 22 (Homo sapiens), Q9HCT0 | recombinant FGF22 thermal shift, SYPRO orange fluorescence; percent of sucrose octasulfate shift, DMSO zero | activity (Tm shift, normalised), % at 9.99 µM | 340,000 compounds, 1.5% hits;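 active = mean Tm shift, scaled 0 neutral to 100 positive control, at about 1.3% or above, every replicate too, limit read from the data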
UUG fidelity – alters start codon recognition fidelity in yeast | S. cerevisiae UUG-firefly luciferase reporter, luminescence/redox ratio | activity score, % at 18.7 µM | 350,000 compounds, 0.13% hits | AID 602363;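 active = replicate mean at a twofold rise or more, about +100% in these data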;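 note: firefly luciferase made from a UUG start codon reports start codon fidelity; reporter light over untreated wells divided by growth signal over untreated wells; some hits fall short of that in this replicate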
PDI turbidity – inhibitors of human PDI, primary screen, biochemical, turbidity, single point, plate reader | PDI insulin aggregation turbidity, A650, 90 min | 350,000 compounds, 0.052% hits | inhibition, % at 10 µM | Protein disulfide-isomerase (Homo sapiens), P07237;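 active = mean inhibition across replicates of 30% or more, whatever share of single replicates reach that level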
* hit, by the source's call; · = no result. An excerpt weighted towards active compounds, which were near 2.2% of everything screened.

SMILES	ERp5 block	SIRT5 block	S100A4 inh HTS	FGF22 binding	UUG fidelity	PDI turbidity
CC(C)(C)NC(=O)NC(=O)CN1CCN(C(c2ccccc2)c2ccccc2)CC1	-2	3	-1	43*	·	12
CC(C)(C)NC(=O)NC(=O)CN1CCN(Cc2ccccc2)CC1	2	0	-3	0	·	-6
O=C(CN1CCCCCCC1)NC(=O)NC1CCCCC1	3	-1	2	0	·	1
O=C(CN1CCCCC1)NC(=O)NC1CCCC1	-4	3	-1	43*	·	1
CC(C)(C)NC(=O)NC(=O)CN1CCCCC1	2	-3	3	43*	·	8
C[C@H]1CCCCO[C@@H](CN(C)C(=O)Nc2ccccc2)[C@@H](C)CN([C@@H](C)CO)C(=O)c2cc(NC(=O)Nc3cccc4ccccc34)ccc2O1	-1	-2	-3	·	-5	·
COC(=O)C1=C2CC[C@H](CO)NC(=O)N[C@H](Cc3ccccc3)C(=O)NCc3cn(nn3)C[C@H](Cc3ccccc3)NC(=O)c3oc(c(C(=O)OC)c3C(=O)OC)CC[C@H](CO)NC(=O)N[C@H](Cc3ccccc3)C(=O)NCc3cn(nn3)C[C@H](Cc3ccccc3)NC(=O)C(=C1C(=O)OC)O2	2	4	7	1	5	·
CC1CCN(c2nc(N3CCCCC3)nc(N3CCCCC3)n2)CC1	-1	-5	-7	43*	-9	1
CCC1C(c2ccccc2)N(C)C(c2ccccc2)CC1(O)c1ccccc1 (stereo not drawn)	3	-1	-4	44*	·	-2
CC(C)C1C(c2ccccc2)N(C)C(c2ccccc2)CC1(O)c1ccccc1 (stereo not drawn)	-4	0	-4	0	-3	8
COC(=O)[C@H]1[C@H](CO)[C@H]2Cn3c(ccc(-c4cccc(F)c4)c3=O)[C@H]2N1S(C)(=O)=O	2	-19	-4	0	·	·
O=C1CCc2cc(S(=O)(=O)N3CCCCC3)cc3c2N1CC3	5	-5	0	0	-2	-2
O=C1CCc2cc(S(=O)(=O)N3CCCCC3)cc3c2N1CCC3	3	4	73*	0	·	5
O=C1SCCN1N=Cc1ccc([N+](=O)[O-])o1	10	22*	-10	0	8	-7
CCNC(=O)C[C@H]1CC[C@H]2[C@@H](COc3ccc(NC(=O)Nc4ccc(Cl)cc4)cc3C(=O)N2C)O1	0	2	-6	0	4	·
CCC/C(O)=C1\C(=O)CCCC1=NCCc1c(C)[nH]c2ccc(C)cc12	-2	0	2	0	-20	5
CCC/C(O)=C1\C(=O)CCCC1=NCCc1c(C)[nH]c2ccc(OC)cc12	-5	2	-1	43*	-13	1
Cc1c(C(=O)N(Cc2ccccc2)C2CCS(=O)(=O)C2)oc2ccccc12 (stereo not drawn)	-4	16*	3	0	3	·
Cc1c(C(=O)N(Cc2ccc(F)cc2)C2CCS(=O)(=O)C2)oc2ccccc12 (stereo not drawn)	0	-1	14	0	-3	8
O=C(C1CCCCC1)N1CC(=O)N2[C@H](CO)[C@@H](c3ccc(-c4cccnc4)cc3)[C@@H]2C1	-8	0	11	·	·	·
O=C(Cc1cccnc1)N1CC(=O)N2[C@H](C1)[C@@H](c1ccc(C#CC3CCCC3)cc1)[C@@H]2CO	-2	-4	0	·	·	·
O=C(c1cccs1)N1CCN=C1SCc1ccccc1F	1	-3	2	43*	-17	2
COc1ccccc1NC(=O)N1C[C@@H]2N[C@H](C1)C2c1ccc(-c2ccc(C#N)cc2)cc1 (stereo partly drawn)	1	1	-6	·	·	·
O=S(=O)(Nn1cnnc1)c1ccccc1	-2	-4	-2	·	-12	2

Profiles as entered above. Values in the order: ERp5 block, SIRT5 block, S100A4 inh HTS, FGF22 binding, UUG fidelity, PDI turbidity
O=C(CN1CCCCC1)NC(=O)NC1CCCC1 in the list: -4, 3, -1, 43*, ·, 1
Cc1c(C(=O)N(Cc2ccc(F)cc2)C2CCS(=O)(=O)C2)oc2ccccc12 (stereo not drawn) in the list: 0, -1, 14, 0, -3, 8
CCC/C(O)=C1\C(=O)CCCC1=NCCc1c(C)[nH]c2ccc(OC)cc12 in the list: -5, 2, -1, 43*, -13, 1

Assay outcomes from PubChem BioAssay.
